Reference: patent US7119095B2, “Pharmaceutically active compounds and methods of use thereof” (Dana Farber Cancer Institute, priority 2001, dated 2006)

Molecular target: T1, rat liver DHFR (Rattus norvegicus, UniProt Q920D2)
T1 sequence (Q920D2 1-187): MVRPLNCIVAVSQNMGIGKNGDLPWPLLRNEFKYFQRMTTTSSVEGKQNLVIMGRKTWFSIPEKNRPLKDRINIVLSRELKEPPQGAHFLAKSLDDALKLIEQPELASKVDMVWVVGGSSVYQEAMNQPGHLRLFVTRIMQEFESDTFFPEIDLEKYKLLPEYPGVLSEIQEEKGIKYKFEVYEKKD
Assay: Inhibition of rat liver DHFR (literature assay)

Compound: COc1ccc(OCCCCC(=O)O)cc1Cc1cnc(N)nc1N [Compound 3g]
- IC50: 5.4 µM
